The chains behind the UniProt entries cited, without tags or fusion partners. Residues count along the entry.
UniProt P24530, 27-442 limits assumed: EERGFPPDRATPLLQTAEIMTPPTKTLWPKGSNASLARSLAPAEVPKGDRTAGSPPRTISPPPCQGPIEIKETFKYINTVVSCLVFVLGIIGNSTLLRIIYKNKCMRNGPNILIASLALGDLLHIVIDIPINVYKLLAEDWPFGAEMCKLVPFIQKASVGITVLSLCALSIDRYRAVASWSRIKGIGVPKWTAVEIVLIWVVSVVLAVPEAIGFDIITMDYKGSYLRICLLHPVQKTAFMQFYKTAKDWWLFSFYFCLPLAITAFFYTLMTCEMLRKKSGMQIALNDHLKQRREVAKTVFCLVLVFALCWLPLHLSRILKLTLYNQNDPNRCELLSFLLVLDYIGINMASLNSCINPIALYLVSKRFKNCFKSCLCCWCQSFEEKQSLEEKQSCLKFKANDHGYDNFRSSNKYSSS
UniProt P25101, 21-427 limits assumed: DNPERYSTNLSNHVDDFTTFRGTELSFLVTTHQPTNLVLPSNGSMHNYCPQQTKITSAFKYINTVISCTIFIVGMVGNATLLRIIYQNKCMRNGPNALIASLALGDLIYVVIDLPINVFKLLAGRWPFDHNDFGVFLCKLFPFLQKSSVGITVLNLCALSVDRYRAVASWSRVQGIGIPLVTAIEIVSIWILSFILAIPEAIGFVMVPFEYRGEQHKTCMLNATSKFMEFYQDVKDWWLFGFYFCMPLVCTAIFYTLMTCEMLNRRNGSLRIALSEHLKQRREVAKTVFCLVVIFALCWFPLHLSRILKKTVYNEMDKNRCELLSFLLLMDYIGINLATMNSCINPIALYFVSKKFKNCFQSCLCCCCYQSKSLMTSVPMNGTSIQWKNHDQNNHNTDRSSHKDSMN

In US7323465B2, “Alkansulfonamides as endothelin antagonists” (Actelion Pharmaceuticals Ltd., priority 2002, dated 2008):

How the values were obtained:
[1] = biological target: human recombinant ETB receptors (Homo sapiens, UniProt P24530); assay: Inhibition of [125I]ET-1 binding to membranes from CHO cells carrying human ETB receptors; conditions: read-out: IC50 ETB; CHO cell membranes, 8 pM [125I]ET-1, 2 h at 20° C., 2.5% DMSO
[2] = biological target: human recombinant ETA receptors (Homo sapiens, UniProt P25101); assay: Inhibition of [125I]ET-1 binding to membranes from CHO cells carrying human ETA receptors; conditions: read-out: IC50 ETA; CHO cell membranes, 8 pM [125I]ET-1, 2 h at 20° C., 2.5% DMSO

Structure (SMILES): COc1cnc(OCCOc2ncnc(NS(C)(=O)=O)c2Oc2cc(OC)ccc2Cl)nc1
- IC50 [1]: 349 nM
- IC50 [2]: 8.7 nM

Structure (SMILES): CCCS(=O)(=O)Nc1ncnc(OCCOc2ncc(Br)cn2)c1Oc1cc(OC)ccc1Cl
- IC50 [1]: 350 nM
- IC50 [2]: 1 nM

Structure (SMILES): CCCS(=O)(=O)Nc1ncnc(OCCOc2ncc(S(C)(=O)=O)cn2)c1Oc1cc(OC)ccc1Cl
- IC50 [1]: 236 nM
- IC50 [2]: 0.6 nM

Structure (SMILES): CCCS(=O)(=O)Nc1ncnc(OCCOc2ncc(SC)cn2)c1Oc1cc(OC)ccc1Cl
- IC50 [1]: 109 nM
- IC50 [2]: 0.8 nM

Structure (SMILES): CCS(=O)(=O)Nc1ncnc(OCCOc2ncc(SC)cn2)c1Oc1cc(OC)ccc1Cl
- IC50 [1]: 69 nM
- IC50 [2]: 1 nM

Structure (SMILES): CCS(=O)(=O)Nc1ncnc(OCCOc2ncc(Br)cn2)c1Oc1cc(OC)ccc1Cl
- IC50 [1]: 258 nM
- IC50 [2]: 1.6 nM

Structure (SMILES): COc1ccc(Cl)c(Oc2c(NS(C)(=O)=O)ncnc2OCCOc2ncc(SC)cn2)c1
- IC50 [1]: 85 nM
- IC50 [2]: 1.99 nM

Structure (SMILES): CCCS(=O)(=O)Nc1ncnc(OCCOc2ncc(OC)cn2)c1Oc1cc(OC)ccc1Cl
- IC50 [1]: 417 nM
- IC50 [2]: 4 nM

Structure (SMILES): COc1ccc(Cl)c(Oc2c(NS(C)(=O)=O)ncnc2OCCOc2ncc(S(C)(=O)=O)cn2)c1
- IC50 [2]: 2.8 nM

Structure (SMILES): COc1ccc(Cl)c(Oc2c(NS(C)(=O)=O)ncnc2OCCOc2ncc(Br)cn2)c1
- IC50 [1]: 216 nM
- IC50 [2]: 2 nM
